Broadly, the IC50 is the concentration needed to halve the response being measured. High values mean weaker potency in that assay, low ones greater potency in that assay.

Amino acid sequences for entries named in this document (tags omitted).
UniProt P11712, whole entry: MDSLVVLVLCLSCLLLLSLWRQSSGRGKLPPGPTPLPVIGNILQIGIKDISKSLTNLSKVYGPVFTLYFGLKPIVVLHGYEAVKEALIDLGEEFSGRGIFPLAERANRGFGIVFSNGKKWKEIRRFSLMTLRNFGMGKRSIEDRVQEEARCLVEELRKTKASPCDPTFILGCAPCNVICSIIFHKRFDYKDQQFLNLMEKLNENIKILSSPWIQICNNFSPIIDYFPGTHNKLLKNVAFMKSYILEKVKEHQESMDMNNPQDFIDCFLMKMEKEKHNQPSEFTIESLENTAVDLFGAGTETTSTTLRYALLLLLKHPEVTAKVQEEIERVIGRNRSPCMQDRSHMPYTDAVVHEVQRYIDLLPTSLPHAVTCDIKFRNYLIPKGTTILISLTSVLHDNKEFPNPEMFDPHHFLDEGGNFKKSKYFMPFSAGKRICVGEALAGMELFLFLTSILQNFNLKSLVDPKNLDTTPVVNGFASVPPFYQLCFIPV

This experiment deals with Cytochrome P450 2C9 (Homo sapiens, UniProt P11712).

Regarding `O=C1c2nc3ccccc3n2CCN1CCCCOc1ccc(OC(F)(F)F)cc1`, the IC50 is 7 µM.

The values above are taken from ChEMBL document CHEMBL4715841, “Discovery of dihydropyrazino-benzimidazole derivatives as metabotropic glutamate receptor-2 (mGluR2) positive allosteric modulators (PAMs)” (Eur J Med Chem, 2020).
